Hits are enriched below; roughly 2.3% of the tested compounds scored in any of these assays.
ASAP1 GAP inh = inhibitors of human ASAP1 ArfGAP activity. AID 624377. hit rate 0.19% among 360,000. inhibition, % at 16.5 µM. ASAP1-stimulated ARF1 GTP hydrolysis, GDP FP detection; in the data active = inhibition above about 25%;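 also: 0% = vehicle with enzyme and substrate and 100% = no enzyme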
ARFGAP1 inhibitor = rat ARFGAP1 inhibition; Arfgap1-stimulated ARF1 GTP hydrolysis, GDP FP detection; hit rate 0.26% among 360,000; inhibition, % at 16.5 µM;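 active = inhibition above a per-plate limit, mean inhibition of low control wells plus 3 SD, cut at about 25% in these data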;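 also: 0% = DMSO wells with enzyme and 100% = wells lacking Arfgap1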
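system = rat Arfgap1 catalytic domain, aa 1-136 | technique = FP, GDP Alexa 633 tracer displaced from anti-GDP antibody, 620/688 nm | compound = one concentration, 16.5 µM, DMSO 1.26% | medium = HEPES-based buffer, pH 7.5 | timing = compound-enzyme preincubation 20 min, reaction 120 min, detection 60 min, 25 °C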
MC4R antagonist = human MC4R antagonism in cAMP assay; hit rate 0.48% among 360,000; AID 540295; MC4R-expressing cells, MTII-stimulated cAMP, LANCE TR-FRET; inhibition, % at 6.5 µM; P32245;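 active = inhibition above its plate's cutoff, the mean of tested wells on that plate plus 3 SD, cut at about 29% in these data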;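 also: 0% = Melanotan II alone and 100% = Melanotan II plus saturating MCL0020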
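Material: human MC4R-expressing U2OS cells. Probe or stimulus: Melanotan II challenge. Dosing: 6.5 µM single dose. Times: 30-min compound, 1-h challenge, 1-h detection, room temperature. Technique: TR-FRET with Eu-cAMP and labeled anti-cAMP, 671 nm. Replication: singlicate.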
UUG fidelity = modulators of start codon recognition fidelity in yeast; S. cerevisiae UUG-firefly luciferase reporter, luminescence/redox ratio; activity score, % at 18.7 µM; hit rate 0.13% among 350,000; AID 602363;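 active = replicate mean at a twofold rise or more, about +100% in these data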;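 note: firefly luciferase made from a UUG start codon reports start codon fidelity; reporter light over untreated wells divided by growth signal over untreated wells; some hits fall short of that in this replicate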
MC4R barr agon = agonists of human melanocortin 4 receptor (MC4R) beta-arrestin. P32245. U2OS MC4R beta-arrestin complementation, luminescence; percent of melanotan II response, DMSO zero. activation, % at 8.9 µM. hit rate 0.98% among 360,000. AID 540308;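 active = activation above a per-plate cutoff, the mean activation of sample wells on that plate plus 3 SD, cut at about 8% in these data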
CendR NRP1 mod = alters CendR peptide binding to human NRP-1; O14786; FAM-RPARPAR peptide binding to NRP-1, fluorescence polarization; inhibition, % at 25 µM; hit rate 0.85% among 360,000;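 active = inhibition or corrected inhibition above about 18%, plus a signal ratio from 0.5 to 1.5, limit read from the data, passing the limit was not always enough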
ASAP1 inh confirm = ASAP1 inhibition confirmed. ASAP1-stimulated Arf1 GTPase, GDP fluorescence polarization. inhibition, % at 16.5 µM. shares compounds with ASAP1 GAP inh. hit rate 37% among 620;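 active = mean inhibition over triplicates exceeds the hit threshold derived for the earlier primary screening run, cut at about 25% in these data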
Starred values were filed as active, the others as inactive.

For COc1ccc(NC(=O)Nc2ccc3c(c2)CC(=O)N([C@@H](C)CO)C[C@H](C)[C@@H](CN(C)Cc2ccncc2)O3)cc1 the results were UUG fidelity 1.9.
`CC(=O)Cc1nsc(NC(=O)c2ccc(-c3ccc(Cl)cc3Cl)o2)n1` gave ASAP1 GAP inh -0.4, ARFGAP1 inhibitor 13.7, MC4R antagonist 7.7, UUG fidelity -11.5, MC4R barr agon -2.5 and CendR NRP1 mod 2.0.
Cc1nnc2sc(-c3ccc(NC(=O)c4ccc(-c5ccc(Cl)cc5Cl)o4)cc3)nn12 was read as ASAP1 GAP inh 111.8*, ARFGAP1 inhibitor 20.1, MC4R antagonist -2.6, UUG fidelity -17.4, MC4R barr agon -2.8, CendR NRP1 mod -81.8 and ASAP1 inh confirm 55.5*.
O=C(Nc1ccc(NC(=S)NC(=O)c2ccco2)cc1)c1ccc(Br)cc1 was read as ASAP1 GAP inh 58.4*, ARFGAP1 inhibitor 9.8, MC4R antagonist 4.1, UUG fidelity -9.7, MC4R barr agon -2.2, CendR NRP1 mod 10.6 and ASAP1 inh confirm 161.2*.
`O=C(Cc1ccncc1)NCC[C@@H]1CC[C@H](NC(=O)C2CCOCC2)[C@@H](CO)O1` gave UUG fidelity -0.8.
`COc1ccc(CN2C(=O)Cc3c2nc(N)c2c(N)nc(N4CCOCC4)c(C#N)c32)cc1` gave ASAP1 GAP inh 28.3*, ARFGAP1 inhibitor -4.4, MC4R antagonist 21.6, MC4R barr agon -1.6, CendR NRP1 mod -17.4 and ASAP1 inh confirm 8.2.
For N#Cc1ccc(OCCCN2CCC(C(O)(c3ccccc3)c3ccccc3)CC2)cc1 the results were ASAP1 GAP inh 25.2*, ARFGAP1 inhibitor -5.5 and ASAP1 inh confirm -3.3.
Screening CC1(C)SC(=S)N(/N=C/c2ccc(O)cc2)C1N(O)C(=O)Nc1ccc([N+](=O)[O-])cc1 (stereo unspecified) returned ASAP1 GAP inh 24.9*, ARFGAP1 inhibitor 0.3, MC4R antagonist 8.2, UUG fidelity -18.1, MC4R barr agon -1.0, CendR NRP1 mod -3.1 and ASAP1 inh confirm 15.5.
O=[N+]([O-])c1ccccc1OCCOc1ccccc1[N+](=O)[O-] was read as ASAP1 GAP inh 81.3*, ARFGAP1 inhibitor 34.9*, MC4R antagonist -1.8, MC4R barr agon -2.1, CendR NRP1 mod 10.8 and ASAP1 inh confirm 102.1*.
For C[C@H](CO)N1C[C@H](C)[C@@H](CN(C)C(=O)Nc2cccc3ccccc23)Oc2c(NC(=O)C3CCOCC3)cccc2C1=O the results were UUG fidelity 3.7.
For CC1OC(Nc2cccc3ccccc23)C(O)C(O)C1O (stereo unspecified) the results were ASAP1 GAP inh 26.2*, ARFGAP1 inhibitor 9.1, MC4R antagonist -17.4, UUG fidelity -8.4, MC4R barr agon -3.1, CendR NRP1 mod 0.3 and ASAP1 inh confirm 4.0.
Cc1nn(C)cc1NC(=O)C[C@H]1CC[C@H]2[C@H](COc3ccc(NC(=O)C(C)C)cc3C(=O)N2C)O1 was read as UUG fidelity -13.8.
`O=C(NCC[C@@H]1CC[C@@H](NS(=O)(=O)Cc2ccccc2)[C@@H](CO)O1)C1CC1` gave ASAP1 GAP inh 25.7*, ARFGAP1 inhibitor 1.8, UUG fidelity 3.4, CendR NRP1 mod 7.8 and ASAP1 inh confirm -1.1.
O=C(NCC[C@@H]1CC[C@@H](NS(=O)(=O)Cc2ccccc2)[C@H](CO)O1)C1CC1 was read as UUG fidelity -2.6.
CCC(=O)N1CC[C@H]2[C@@H]1c1cc(-c3ccccc3F)ccc1N(C)[C@H]2CO was read as UUG fidelity -13.8.
O=c1c2ccccc2nc(/C=C/c2cc(Br)ccc2O)n1CCO was read as ASAP1 GAP inh 27.4*, ARFGAP1 inhibitor 4.0, MC4R antagonist 12.5, UUG fidelity -7.3, MC4R barr agon 0.1, CendR NRP1 mod -10.5 and ASAP1 inh confirm 9.5.
Screening O=c1c2ccccc2nc(/C=C/c2c[nH]c3ccccc23)n1CCO returned ASAP1 GAP inh 0.1, ARFGAP1 inhibitor 10.3, MC4R antagonist 1.2, MC4R barr agon -2.5 and CendR NRP1 mod -16.3.

Among those listed so far, these have an aryl methoxy group.
For COc1ccc(NC(=O)Nc2ccc3c(c2)CC(=O)N([C@@H](C)CO)C[C@H](C)[C@@H](CN(C)Cc2ccncc2)O3)cc1 the results were UUG fidelity 1.9.
`COc1ccc(CN2C(=O)Cc3c2nc(N)c2c(N)nc(N4CCOCC4)c(C#N)c32)cc1` gave ASAP1 GAP inh 28.3*, ARFGAP1 inhibitor -4.4, MC4R antagonist 21.6, MC4R barr agon -1.6, CendR NRP1 mod -17.4 and ASAP1 inh confirm 8.2.

Source: PubChem (several laboratories)
